From PubChem BioAssay AID504429 (National Center for Advancing Translational Sciences (NCATS), 2011) come the findings set out here.

Protein sequences, listed by entry. Tags and fused reporters are not part of them.
UniProt Q9Y463, whole entry, looked up: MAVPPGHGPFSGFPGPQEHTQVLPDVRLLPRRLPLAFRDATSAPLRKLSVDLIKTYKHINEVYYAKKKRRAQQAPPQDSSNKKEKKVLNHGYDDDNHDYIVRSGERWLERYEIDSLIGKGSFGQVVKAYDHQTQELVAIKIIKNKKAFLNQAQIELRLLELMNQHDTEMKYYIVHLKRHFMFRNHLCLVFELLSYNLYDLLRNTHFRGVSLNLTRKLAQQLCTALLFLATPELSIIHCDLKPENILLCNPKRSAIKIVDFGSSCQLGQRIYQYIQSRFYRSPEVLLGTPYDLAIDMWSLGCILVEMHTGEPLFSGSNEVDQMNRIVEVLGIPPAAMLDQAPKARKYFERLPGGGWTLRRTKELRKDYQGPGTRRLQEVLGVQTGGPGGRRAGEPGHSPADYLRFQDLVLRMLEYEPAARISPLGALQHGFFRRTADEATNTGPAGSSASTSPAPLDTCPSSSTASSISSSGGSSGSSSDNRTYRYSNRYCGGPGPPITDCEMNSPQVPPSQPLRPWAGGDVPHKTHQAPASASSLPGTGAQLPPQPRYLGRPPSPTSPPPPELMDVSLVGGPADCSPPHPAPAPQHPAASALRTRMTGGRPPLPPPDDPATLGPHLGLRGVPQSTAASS

The list shows a part of the results, in another mix than the full data. Active and inactive are the calls of the source.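 The calls were made as follows: active = compounds whose dose response shows an inhibitor phenotype against the kinase Dyrk1b; inactive = compounds showing no inhibitor phenotype.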

The assay deals with Dual specificity tyrosine-phosphorylation-regulated kinase 1B (Homo sapiens) (UniProt Q9Y463). The assay can be described thus: Kinase Inhibition Study on Inhibitors of Dyrk1b (Reaction Biology data). To be noted: Recombinant Dyrk1b kinase assay, 10 uM ATP. From the text: NIH Molecular Libraries Probe Production Centers Network [MLPCN] NIH Chemical Genomics Center [NCGC] MLPCN Grant: 1R03MH084827-01 Assay Submitter (PI): Tom Misteli NCGC Assay Overview: Alternative splicing of pre-mRNAs plays a major role in the regulation of eukaryotic gene expression. Alternative splicing is now thought to be one of the primary reasons for the complexity of higher organisms leading to an average of three protein isoforms per gene. Aberrant splicing can lead to a number of diseases and is known to play a role in rare genetic diseases such as progeria syndrome. Hutchinson-Gilford Progeria Syndrome (HGPS) is a pediatric premature aging disease caused by a spontaneous mutation in the lamin A/C (LMNA) gene due to a single point mutation in the lamin A gene effecting 1 in 4 million people. To identify both specific splicing modulators of the lamin A gene as well as general splicing modulators, a cell-based HTS assay was developed using a minigene reporter system (AIDs, 1459 & 1487). […] The Clk family is part of the CMGC group of protein kinases which includes Dyrks and are essential kinases found in all eukaryotes. […] This AID is to summarize the activity of these analogs in Dyrk1b.
All kinase reactions were performed using 10 uM ATP in the assay. 100% activity was taken from kinase reactions with DMSO alone (the vehicle used for compound stock solutions).
Take `c1csc(CNc2ncnc3ccc(-c4ccc5c(c4)OCO5)cc23)c1`: the Potency is active: 451 nM. For the compound `c1coc(CCNc2ncnc3ccc(-c4ccc5c(c4)OCO5)cc23)c1`, the Potency was active: 130 nM.
